Assay results from patent US20140072613A1 (published 2014).

Legend:
Test in all cases: cell-based or functional assay
GRK5(h) = GRK5(h) (human, UniProt P34947 1-590)
ACK1(h) = ACK1(h) (human, UniProt Q07912 110-476, limits assumed)
JAK3(h) = JAK3(h) (human, UniProt P52333 781-1124, limits assumed)
PAR-1Bα(h) = target: T1, PAR-1Bα(h) (human, UniProt Q7KZI7-4 1-725, limits assumed)
T1 sequence (looked up): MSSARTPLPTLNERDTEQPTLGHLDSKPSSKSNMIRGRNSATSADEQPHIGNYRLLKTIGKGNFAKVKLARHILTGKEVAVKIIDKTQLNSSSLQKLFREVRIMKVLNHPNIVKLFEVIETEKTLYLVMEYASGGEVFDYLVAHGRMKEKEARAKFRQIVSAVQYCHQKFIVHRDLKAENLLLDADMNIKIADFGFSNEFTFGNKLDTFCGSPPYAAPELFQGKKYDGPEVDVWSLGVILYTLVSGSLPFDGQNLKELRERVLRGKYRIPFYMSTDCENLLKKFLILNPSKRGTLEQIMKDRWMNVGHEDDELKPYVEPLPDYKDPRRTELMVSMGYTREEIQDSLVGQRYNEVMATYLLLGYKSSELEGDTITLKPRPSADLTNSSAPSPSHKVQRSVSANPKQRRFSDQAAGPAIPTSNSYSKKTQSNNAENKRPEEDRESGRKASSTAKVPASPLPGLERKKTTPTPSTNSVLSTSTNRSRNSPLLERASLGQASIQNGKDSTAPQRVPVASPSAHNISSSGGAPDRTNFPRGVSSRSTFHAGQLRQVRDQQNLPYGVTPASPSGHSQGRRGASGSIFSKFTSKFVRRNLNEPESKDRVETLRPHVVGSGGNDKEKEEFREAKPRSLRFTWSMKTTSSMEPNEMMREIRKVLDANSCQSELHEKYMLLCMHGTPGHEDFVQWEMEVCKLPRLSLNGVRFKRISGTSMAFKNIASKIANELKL

PKA(h) = PKA(h) (human, UniProt P17612 1-351)
PKGη(h) = PKGη(h) (human)
Plk1(h) = Plk1(h) (human, UniProt P53350 1-603)
Tie2(R849W)(h) = Tie2(R849W)(h) (human, UniProt Q02763 771-1124, limits assumed)
TLK2(h) = TLK2(h) (human, UniProt Q86UE8 1-772, limits assumed)
CK2α2(h) = CK2α2(h) (human, UniProt P19784 1-350)
cKit(V560G)(h) = cKit(V560G)(h) (human, UniProt P10721 544-976)
c-RAF(h) = c-RAF(h) (human, UniProt P04049 306-648, limits assumed)
FAK(h) = FAK(h) (human, UniProt Q05397 1-1052, limits assumed)
FGFR2(N549H)(h) = FGFR2(N549H)(h) (human, UniProt P21802 456-770, limits assumed)
HIPK3(h) = HIPK3(h) (human, UniProt Q9H422 163-562, limits assumed)
JAK2(h) = JAK2(h) (human, UniProt O60674 808-1132, limits assumed)
Lck(h) = Lck(h) (human, UniProt P06239 1-509)
PAK5(h) = PAK5(h) (human, UniProt Q9P286 1-719, limits assumed)
CK1γ1(h) = CK1γ1(h) (human, UniProt Q9HCP0 1-422)
Abl(M351T)(h) = Abl(M351T)(h) (human, UniProt P00519 27-1130, limits assumed)

FAKLAARLYRKALARQLGVAA [MMI-0300]
% activity, 100 µM (GRK5(h)): 136% | % activity, 100 µM (ACK1(h)): 104% | % activity, 100 µM (JAK3(h)): 121% | % activity, 100 µM (PAR-1Bα(h)): 113% | % activity, 100 µM (PKA(h)): 119% | % activity, 100 µM (PKGη(h)): 103% | % activity, 100 µM (Plk1(h)): 115% | % activity, 100 µM (Tie2(R849W)(h)): 117% | % activity, 100 µM (TLK2(h)): 114% | % activity, 100 µM (CK2α2(h)): 105% | % activity, 100 µM (cKit(V560G)(h)): 102% | % activity, 100 µM (c-RAF(h)): 107% | % activity, 100 µM (FAK(h)): 111% | % activity, 100 µM (FGFR2(N549H)(h)): 116%

KAFAKLAARLYRKALARQLGVAA [MMI-0400]
% activity, 100 µM (HIPK3(h)): 105% | % activity, 100 µM (JAK2(h)): 119% | % activity, 100 µM (Lck(h)): 228% | % activity, 100 µM (PAK5(h)): 117% | % activity, 100 µM (PAR-1Bα(h)): 109% | % activity, 100 µM (CK1γ1(h)): 116% | % activity, 100 µM (Abl(M351T)(h)): 121% | % activity, 100 µM (FGFR2(N549H)(h)): 112%
